From ChEMBL document CHEMBL1143135, “A structure-activity relationship study and combinatorial synthetic approach of C-terminal modified bifunctional peptides that are delta/mu opioid receptor agonists and neurokinin 1 receptor antagonists” (J Med Chem, 2008) come the findings set out here.

Protein sequences, listed by entry. Tags and fused reporters are not part of them.
UniProt P41143, whole entry, looked up: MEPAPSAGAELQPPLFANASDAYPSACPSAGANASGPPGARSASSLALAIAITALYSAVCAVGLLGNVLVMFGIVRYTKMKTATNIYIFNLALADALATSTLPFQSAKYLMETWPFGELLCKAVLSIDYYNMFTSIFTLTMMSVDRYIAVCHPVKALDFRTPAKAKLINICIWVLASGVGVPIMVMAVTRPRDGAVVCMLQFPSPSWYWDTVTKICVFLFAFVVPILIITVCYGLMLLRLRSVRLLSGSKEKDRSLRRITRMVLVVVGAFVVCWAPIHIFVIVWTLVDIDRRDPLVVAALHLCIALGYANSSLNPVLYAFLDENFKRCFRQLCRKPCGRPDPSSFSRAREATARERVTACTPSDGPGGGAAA

In experiment [1] the target is Delta-type opioid receptor (Homo sapiens) (UniProt P41143). Briefly: Agonist activity at human delta opioid receptor by [35S]GTP-gamma-S binding assay. It is filed as functional. The method in brief:
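Membranes (10 µg) from HN9.10 cells transfected with rMOR or hDOR, incubated 90 min at 30 °C with test drug 1×10^-12 to 1×10^-5 M in duplicate. Buffer: 50 mM HEPES pH 7.4, 30 µM GDP, 5 mM MgCl2, 100 mM NaCl, 0.1 nM [35S]GTPγS. Filtration, then scintillation counting. Nonspecific binding defined with 10 µM GTPγS. EC50 from nonlinear regression, two experiments; Emax as net/basal ×100.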
In general terms: Binding of GTPγS marks nucleotide exchange on a G protein.

Experiment [2] can be described thus: Ratio of Ki for human delta opioid receptor over Ki for rat mu opioid receptor.

As to `C[C@@H](NC(=O)[C@@H](N)Cc1ccc(O)cc1)C(=O)NCC(=O)N[C@@H](Cc1ccccc1)C(=O)NNC(=O)[C@H](Cc1ccccc1)NC(=O)CNC(=O)[C@@H](C)NC(=O)[C@@H](N)Cc1ccc(O)cc1`, in experiment [1], the logEC50 is -9. The Ratio Ki in experiment [2] turned out to be 0.54.
